The target of this experiment is T1, Tyrosine-protein phosphatase non-receptor type 1 [1-298] (Homo sapiens, UniProt P18031).
T1 construct: 1-298
T1 sequence (P18031 whole entry): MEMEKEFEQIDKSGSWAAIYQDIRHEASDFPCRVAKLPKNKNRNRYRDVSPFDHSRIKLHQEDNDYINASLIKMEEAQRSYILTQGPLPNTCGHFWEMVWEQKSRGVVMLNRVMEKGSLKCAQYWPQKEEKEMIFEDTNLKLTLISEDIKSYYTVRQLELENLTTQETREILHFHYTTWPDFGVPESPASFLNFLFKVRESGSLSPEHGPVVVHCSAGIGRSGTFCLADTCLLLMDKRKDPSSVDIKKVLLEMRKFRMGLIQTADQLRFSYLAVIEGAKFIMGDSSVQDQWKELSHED
The experiment in a line: PTP1B and TCPTP Inhibition Assay. As to conditions: pH 7.5; 22 °C.

Usually Ki stands for a dissociation constant, usually derived from enzyme kinetics or from competition with a known ligand. The low end stands for higher affinity, the high end for lower affinity.

The compound `O=C(O)C(=O)N(c1ccccc1C(=O)O)c1cccc2ccccc12` [2-(Naphthalen-1-yloxalylamino)benzoic Acid] gave a Ki of 39 µM.
Under `CC(=O)N[C@@H](Cc1ccc(N(C(=O)C(=O)O)c2ccccc2C(=O)O)c2ccccc12)C(=O)NCCCCCOc1cc2ccccc2cc1C(=O)O` [3-({5-[(N-Acetyl-3-{4-[(carboxycarbonyl)(2-carboxyphenyl)amino]-1-naphthyl}-L-alanyl)amino]pentyl}oxy)-2-naphthoic Acid] stands 0.022 µM.

(Values after BindingDB's records for doi:10.1021/ja0296733 (Abbott Laboratories, 2003).)
